Binding of CDR-mutated scFvs to a peptide of the spike HR2 region

From the AlphaSeq antibody data of Engelhart et al. 2022 (doi:10.1038/s41597-022-01779-4), copy in the FLAb collection.

Antigen: PDVDLGDISGINAS, a 14-residue peptide of the SARS-CoV-2 spike HR2 region.

The variants keep the heavy chain, the linker and the frameworks of Ab-14 (scFv order VH, a (GGGGS)3 linker, VL).
VH: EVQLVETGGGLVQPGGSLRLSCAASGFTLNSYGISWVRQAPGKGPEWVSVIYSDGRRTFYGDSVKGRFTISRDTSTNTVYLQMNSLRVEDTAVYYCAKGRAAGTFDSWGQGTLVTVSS
VL: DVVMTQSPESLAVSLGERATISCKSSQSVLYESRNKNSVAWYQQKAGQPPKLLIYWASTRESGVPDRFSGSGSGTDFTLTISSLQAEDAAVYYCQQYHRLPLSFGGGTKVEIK

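The starting antibody came from a phage panning campaign against this peptide. In library AAYL50, one, two or three CDR residues were substituted; doubles and triples were drawn at random. The assay is AlphaSeq: two haploid yeast populations carry antibody and antigen on their surface. Binding brings cells together so that they mate, and sequencing counts the barcode pairs among the diploids. Scores were corrected for input abundance and mapped to Kd with protein pairs of known affinity run in the same pool. Each pool was mated in three replicate cultures.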

Substitutions are numbered in sequence along the VL above, starting at 1 (not Kabat). Every variant below is changed at T59 of the VL (sequential numbering). Values are log10 of the apparent Kd in nM; lower means stronger binding. A mean of the replicates is given; it leaves out those without a signal. An entry "nd" has no value in the source: the pair was not observed among the diploids in that replicate. This suggests poor binding but is not conclusive. In this assay the parent's reference entry averaged 0.65; its copy inside this library read 1.68.

| changes | log10 Kd (nM) by replicate | mean, log10 nM | control signals |
|---|---|---|---|
| V39T/W56H/T59W | 2.38 2.53 3.08 | 2.66 | 2/9 (4.63) |
| L30Y/T59L/S103Q | 2.32 2.38 3.27 | 2.66 | 0/9 |
| S58W/T59F/L102G | 1.36 1.59 nd | 1.48 | 0/9 |
| T59C/Q95C/L100Y | nd nd nd | nd | 1/9 (4.31) |
| Y31M/T59H/R99M | 0.79 1.02 1.07 | 0.96 | 4/9 (4.55) |
| E32T/T59C | 0.90 1.47 1.91 | 1.42 | 1/9 (3.21) |
| L30I/T59A/R99E | nd nd nd | nd | 0/9 |
| T59H/Y97M/P101T | nd nd nd | nd | 0/9 |
| T59E/S62K/Y97G | 4.27 3.62 3.74 | 3.87 | 3/9 (5.17) |
| T59Y/L100G/S103P | nd nd nd | nd | 0/9 |
| S28C/Y31A/T59F | 2.62 2.34 2.64 | 2.53 | 5/9 (4.32) |
| Q27P/N35Q/T59K | 0.79 0.95 1.11 | 0.95 | 3/9 (5.32) |
| S33M/T59E/Y97T | 0.78 1.00 0.97 | 0.92 | 5/9 (4.65) |
| V29P/T59R/S103V | nd nd 3.29 | 3.29 | 1/9 (3.41) |
| V29G/R34I/T59Y | 1.41 2.49 2.78 | 2.22 | 0/9 |
| V39C/T59L | 6.47 3.37 5.10 | 4.98 | 5/9 (4.78) |
| Y31L/T59N/S103G | 2.19 1.87 1.88 | 1.98 | 2/9 (3.79) |
| V39P/T59C/L102Y | 5.36 5.32 4.90 | 5.19 | 5/9 (4.52) |
| Y31N/E32G/T59F | 1.25 1.22 1.32 | 1.26 | 0/9 |
| K24I/K36V/T59G | nd nd 4.21 | 4.21 | 4/9 (4.23) |
| E32C/W56H/T59D | 1.35 1.80 1.50 | 1.55 | 0/9 |
| S33L/T59V/Q96G | nd 4.55 3.39 | 3.97 | 3/9 (3.99) |
| A57K/T59L/R99D | nd 4.38 nd | 4.38 | 3/9 (3.78) |
| T59M/S62R/H98E | 1.00 1.07 1.16 | 1.07 | 3/9 (4.10) |
| V29Y/T59A/E61W | nd nd nd | nd | 1/9 (3.66) |
| V39L/T59P/Q96W | nd 3.63 nd | 3.63 | 0/9 |
| V39K/T59A/L100R | 5.49 4.01 4.71 | 4.74 | 6/9 (4.47) |
| S38H/V39M/T59I | nd nd nd | nd | 0/9 |
| K36Q/V39H/T59I | nd 3.72 nd | 3.72 | 3/9 (3.30) |
| S26V/N35G/T59Q | 0.88 1.12 1.08 | 1.03 | 4/9 (4.07) |
| T59V/Q96I/L100C | 0.55 0.86 0.66 | 0.69 | 2/9 (4.36) |
| A40Y/T59N/Q95A | nd nd nd | nd | 2/9 (3.34) |
| S25W/Y31G/T59G | 2.95 2.33 3.08 | 2.79 | 2/9 (4.05) |
| T59F/Q96G | nd 3.91 nd | 3.91 | 1/9 (4.33) |
| W56I/T59M | nd nd nd | nd | 1/9 (4.75) |
| T59S/L100V/L102V | 1.61 1.64 1.57 | 1.61 | 0/9 |
| Q27M/A40L/T59M | nd nd nd | nd | 0/9 |
| Q27Y/T59W/Q95H | nd nd nd | nd | 4/9 (3.74) |
| Q27N/T59P/E61L | nd nd nd | nd | 1/9 (2.69) |
| S25L/T59D/L100W | nd nd nd | nd | 0/9 |
| E32Q/T59F/L100F | 2.68 2.34 2.66 | 2.56 | 2/9 (4.39) |
| T59V/Q95T/L100N | 1.58 4.21 1.70 | 2.50 | 0/9 |
| N35H/N37P/T59A | nd nd 3.87 | 3.87 | 2/9 (3.63) |
| Q27P/T59D/Y97V | nd 3.93 nd | 3.93 | 1/9 (4.41) |
| T59M/Q95V/S103N | 1.23 1.29 1.59 | 1.37 | 1/9 (3.87) |
| S38N/T59K/P101Y | 0.95 1.47 1.35 | 1.26 | 1/9 (5.20) |
| V39P/T59A | nd 3.87 nd | 3.87 | 3/9 (4.23) |

The last 5 entries again:

| changes | log10 Kd (nM) by replicate | mean, log10 nM | control signals |
|---|---|---|---|
| N35H/N37P/T59A | nd nd 3.87 | 3.87 | 2/9 (3.63) |
| Q27P/T59D/Y97V | nd 3.93 nd | 3.93 | 1/9 (4.41) |
| T59M/Q95V/S103N | 1.23 1.29 1.59 | 1.37 | 1/9 (3.87) |
| S38N/T59K/P101Y | 0.95 1.47 1.35 | 1.26 | 1/9 (5.20) |
| V39P/T59A | nd 3.87 nd | 3.87 | 3/9 (4.23) |

Three control strains display no target. For library AAYL50, 18% of the pairings with them gave a signal, with a median of 4.19 and one signal in twenty below 2.99, so weak values seen in few replicates may be background. For each scFv, signals with the empty controls are counted beside the result, with their mean in brackets.